Experimental data as given in ChEMBL document CHEMBL1148282, “A novel series of piperidin-4-yl-1,3-dihydroindol-2-ones as agonist and antagonist ligands at the nociceptin receptor” (2004).

What was measured:
Nociceptin receptor [1] = target: T1, Nociceptin receptor (Homo sapiens, UniProt P41146); test: Binding affinity against human Nociceptin receptor on CHO cell membranes by [3H]N/OFQ displacement.
Nociceptin receptor [2] = target: T1, Nociceptin receptor; test: Concentration required for stimulation of [35S]GTP-gamma-S, binding to human Nociceptin receptor in cell membranes
[3] = target: Kappa-type opioid receptor (Homo sapiens, UniProt P41145); test: Binding affinity against human Opioid receptor kappa 1 on CHO cell membranes by [3H]U-69593 displacement.
Mu-type opioid receptor = Mu-type opioid receptor (Homo sapiens, UniProt P35372); test: Binding affinity against human Opioid receptor mu 1 on CHO cell membranes was determined by [3H]DAMGO displacement.
[4] = target: Delta-type opioid receptor (Homo sapiens, UniProt P41143); test: Binding affinity against human opioid receptor delta 1 transfected on CHO cells was determined using [3H]Cl-DPDPE

SMILES: O=C1Cc2ccccc2N1C1CCN(C(C2CCCCC2)C2CCCCC2)CC1
- Ki (Nociceptin receptor [1]): > 10000 nM

SMILES: O=C1Cc2ccccc2N1C1CCN(C[C@H]2CC3CCC2C3)CC1 (some centres not stated)
- Ki (Nociceptin receptor [1]): 22 nM
- EC50 (Nociceptin receptor [2]): > 10000 nM
- Ki [3]: 372 nM
- Ki (Mu-type opioid receptor): 115 nM
- Ki [4]: > 10000 nM

SMILES: O=C1Cc2ccccc2N1C1CCN(C[C@@H]2CC3CCC2C3)CC1 (some centres not stated)
- Ki (Nociceptin receptor [1]): 27.9 nM
- EC50 (Nociceptin receptor [2]): > 10000 nM
- Ki [3]: 318 nM
- Ki (Mu-type opioid receptor): 118 nM
- Ki [4]: > 10000 nM

SMILES: CC(c1ccc(C2CCCCC2)cc1)N1CCC(N2C(=O)Cc3ccccc32)CC1 (configuration not stated)
- EC50 (Nociceptin receptor [2]): > 10000 nM
